Assay results reported in PubChem BioAssay AID624300 (Southern Research Specialized Biocontainment Screening …, 2012).

System: HeLa viability, CellTiter-Glo luminescence, 24 h
Test: HeLa cell cytotoxicity, dose response, cytotoxicity control for MgcRacGAP inhibitor project (AID 624300)

Work on `CCCCCCCCCCCCCCCC1C[N+](C)(C)CCOP(C)(=O)O1` (stereo unspecified) yielded a CC50 of 57.3 µM.
